We go through 1 compound from patent US20090312396A1, “METHODS FOR CANCER TREATMENT USING TAK1 INHIBITORS” (AstraZeneca AB, priority 2006, published 2009).

The target in this experiment is T1, TAK1 (Homo sapiens, UniProt O43318).
T1 sequence (O43318 1-606): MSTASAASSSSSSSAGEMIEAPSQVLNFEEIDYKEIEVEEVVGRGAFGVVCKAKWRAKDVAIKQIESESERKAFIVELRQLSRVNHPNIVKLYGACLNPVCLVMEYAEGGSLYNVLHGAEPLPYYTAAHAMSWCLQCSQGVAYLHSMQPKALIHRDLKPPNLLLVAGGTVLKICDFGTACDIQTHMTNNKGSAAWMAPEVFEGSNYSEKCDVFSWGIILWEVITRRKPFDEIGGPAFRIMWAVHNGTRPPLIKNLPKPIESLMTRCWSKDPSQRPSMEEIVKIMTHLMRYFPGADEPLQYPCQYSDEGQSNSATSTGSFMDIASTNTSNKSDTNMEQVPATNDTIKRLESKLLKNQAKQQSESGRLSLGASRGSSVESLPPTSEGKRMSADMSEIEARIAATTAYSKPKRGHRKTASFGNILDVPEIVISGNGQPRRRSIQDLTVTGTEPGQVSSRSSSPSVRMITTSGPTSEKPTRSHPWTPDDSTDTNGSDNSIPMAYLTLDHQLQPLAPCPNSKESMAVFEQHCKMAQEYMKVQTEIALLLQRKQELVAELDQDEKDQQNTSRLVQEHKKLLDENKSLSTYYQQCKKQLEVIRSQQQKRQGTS
T1 sequence (Q15750 1-504 partner): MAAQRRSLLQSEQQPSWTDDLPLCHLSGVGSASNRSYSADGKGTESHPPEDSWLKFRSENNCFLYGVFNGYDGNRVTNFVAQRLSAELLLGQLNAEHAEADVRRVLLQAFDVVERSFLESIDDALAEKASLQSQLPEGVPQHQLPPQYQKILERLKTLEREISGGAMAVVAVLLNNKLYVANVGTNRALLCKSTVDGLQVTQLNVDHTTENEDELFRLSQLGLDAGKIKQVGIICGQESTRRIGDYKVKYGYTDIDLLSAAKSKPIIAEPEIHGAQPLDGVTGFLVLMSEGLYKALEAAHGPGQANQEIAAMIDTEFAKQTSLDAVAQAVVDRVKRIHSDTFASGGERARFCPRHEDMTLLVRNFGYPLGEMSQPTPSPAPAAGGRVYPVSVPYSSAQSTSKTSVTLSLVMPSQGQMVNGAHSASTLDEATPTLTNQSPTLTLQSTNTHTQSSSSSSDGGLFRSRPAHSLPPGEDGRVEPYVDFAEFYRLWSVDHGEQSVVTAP
Put plainly: TAK1 enzyme inhibition. The experiment is classed as biochemical.

For the compound `COc1cc(O)c2c(c1)/C=C/C[C@H](O)[C@H](O)C(=O)/C=C\C[C@H](C)OC2=O` [LL-Z-1640-2, (3S,5Z,8S,9S,11E)-8,9,16-trihydroxy-14-methoxy-3-methyl-3,4,9,10-tetrahydro-1H-2-benzoxacyclotetradecine-1,7(8H)-dione, reference compound], the IC50 (Table 7, read-out: TAK1 pIC50 (converted)) is 158 nM. Also, the “TAK1 pIC50” value (Table 8) is given as 6.8.
